The numbers were not newly measured in paper PMC11220827 (Frontiers in Pharmacology, 2024), which cites them from elsewhere.

Each structure is given as a SMILES string.

One data set deals with Estrogen pathway. The arrangement: method as in ToxCast. The following applies: ref ToxCast; cited from earlier work.
Another data set has as its system Androgen pathway. On the set-up: method as in ToxCast. The following applies: ref ToxCast; cited from earlier work.
Also: key: Pos = positive result; Neg = negative result; Inc = uncertain/inconclusive result.

For `O=c1c(-c2ccc(O)cc2)coc2cc(O)cc(O)c12` [Genistein, 5,7-DIHYDROXY-3-(4-HYDROXYPHENYL)-4-BENZOPYRONE], the “Estrogen pathway: Receptor binding, Call” value with Estrogen pathway was “Pos”. The “Androgen pathway: Receptor binding, Call” value in the data set with Androgen pathway was “Neg”.
